From ChEMBL document CHEMBL1144878, “N-(omega-(4-(2-methoxyphenyl)piperazin-1-yl)alkyl)carboxamides as dopamine D2 and D3 receptor ligands” (J Med Chem, 2003) come the findings set out here.

This assay has as its system D(3) dopamine receptor (Homo sapiens). As to the kind of experiment: Intrinsic activity for Dopamine receptor D3 was determined.

SMILES strings stand for the structures.

For the compound `COc1ccccc1N1CCN(CCCCNC(=O)c2cc3ccccc3cn2)CC1`, the Intrinsic activity was 0.3. In the case of `COc1ccccc1N1CCN(CCCCNC(=O)/C=C/c2ccc(Cl)cc2)CC1` it was 0.7.
